Amino acid sequences for entries named in this document (tags omitted). Residues count along the entry.
UniProt P48546, 22-466 limits assumed: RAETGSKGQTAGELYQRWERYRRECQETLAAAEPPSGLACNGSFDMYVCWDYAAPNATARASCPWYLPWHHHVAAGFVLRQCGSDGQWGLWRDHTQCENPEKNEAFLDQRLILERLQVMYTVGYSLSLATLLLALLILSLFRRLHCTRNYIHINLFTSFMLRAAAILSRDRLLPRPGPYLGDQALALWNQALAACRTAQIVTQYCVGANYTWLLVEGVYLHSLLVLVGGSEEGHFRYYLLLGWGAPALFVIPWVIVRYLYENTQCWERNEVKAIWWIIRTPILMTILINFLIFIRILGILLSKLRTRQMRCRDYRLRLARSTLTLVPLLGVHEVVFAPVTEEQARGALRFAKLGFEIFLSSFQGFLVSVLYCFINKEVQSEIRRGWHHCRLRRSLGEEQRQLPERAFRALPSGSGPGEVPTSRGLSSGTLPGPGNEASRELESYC

According to US20260108546A1 (ELI LILLY AND COMPANY, priority 2024, published 2026):

Biological target: hGIP-R (Homo sapiens, UniProt P48546)
Assay: Functional hGIP-R Assay (cAMP formation, HTRF)
Conditions: cAMP efficacy; percent of maximal response to GIP(1-42)OH; 37° C., 0.1% bovine casein; arithmetic mean ± SEM
Protocol: Functional activity was determined using CAMP formation in HEK-293 clonal cell lines expressing hGIP-R. hGIP-R receptor expressing cells were treated with compound (20 point concentration-response curve in DMSO, 2-fold Labcyte Echo direct dilution, 384 well plate Corning Cat #3570) in DMEM (Gibco Cat #31053) supplemented with 1× GlutaMAX™ (Gibco Cat #35050), 0.1% bovine casein (Sigma C4765-10ML), 250 μM IBMX (3-Isobutyl-1-methylxanthine, Acros Cat #228420010) and 20 mM HEPES (Gibco Cat #15630) in a 20 μL assay volume (final DMSO concentration was 1%). After a 30 min incubation at 37° C., the resulting increase in intracellular cAMP was quantitatively determined using the Revvity CAMP Dynamic 2 HTRF Assay Kit (62AM4PEJ). Briefly, cAMP levels within the cell were detected by adding the cAMP-d2 conjugate in cell lysis buffer (10 μL) followed by the antibody anti-cAMP-Eu^3+-Cryptate, also in cell lysis buffer (10 μL). The resulting competitive assay was incubated for at least 60 min at RT, then detected using a BMG Labtech PHERAstar FSX instrument with excitation at 320 nm and emission at 665 nm and 620 nm. PHERAstar units (emission at 665 nm/620 nm*10,000) are inversely proportional to the amount of cAMP present and were converted to nM cAMP per well using a CAMP standard curve. […]

Structure (SMILES): CC(C)(Cn1cc(C(F)(F)F)cn1)NC(=O)[C@@H](Cc1cnc2ncccn12)NC(=O)[C@H]1C[C@@H]1c1ccc(-c2cnc3nc(C(F)(F)F)cn3c2)cc1
- Human GIP-R Emax, %: 91.6 ± 0.83%
